Results reported in patent US6057371A, “Sigma receptor ligands and the use thereof” (Virginia Commonwealth University, priority 1992, dated 2000).

Chains of the proteins cited; added tags and fusions are not shown. Residues count along the entry.
UniProt H0V073, 1-176: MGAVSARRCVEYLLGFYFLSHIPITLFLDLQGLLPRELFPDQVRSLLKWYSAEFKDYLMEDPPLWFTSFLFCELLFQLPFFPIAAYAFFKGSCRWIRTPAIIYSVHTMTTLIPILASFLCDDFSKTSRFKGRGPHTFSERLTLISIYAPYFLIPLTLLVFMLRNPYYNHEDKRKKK
UniProt Q60492, whole entry: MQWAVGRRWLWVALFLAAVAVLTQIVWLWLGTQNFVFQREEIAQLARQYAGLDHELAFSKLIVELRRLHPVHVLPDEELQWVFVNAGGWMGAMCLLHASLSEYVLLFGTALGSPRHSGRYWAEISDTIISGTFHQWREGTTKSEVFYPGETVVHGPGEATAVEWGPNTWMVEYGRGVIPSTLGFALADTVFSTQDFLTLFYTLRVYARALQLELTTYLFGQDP

Legend:
sigma-2 binding site = target: T1, sigma-2 binding site (Cavia porcellus, UniProt H0V073); assay: biochemical; design: species or system guinea pig; conditions: SIGMA-2 KI vs. 3H-DTG + P[…]
T1 construct: Guinea pig whole membrane preparations (P2 microsomal fraction); from tissue; host or cells: guinea pig membranes (P2 microsomal fraction), as described by Weber et al; brain inferred from the sister test b489

sigma-1 binding site = target: T2, sigma-1 binding site (Cavia porcellus, UniProt Q60492); assay: biochemical; design: species or system guinea pig
T2 construct: Guinea pig whole membrane preparations (P2 microsomal fraction); from tissue; host or cells: guinea pig membranes (P2 microsomal fraction), as described by Weber et al; brain inferred from the sister test b489
Method: [^3 H]DTG was purchased from DuPont/NEN.
The radioactivity on the filters was determined by scintillation spectrometry at an efficiency of about 50% using Cytoscint (ICN) scintillation fluid.

Structure (SMILES) | Ki (sigma-2 binding site) [nM] | further results
CC(C)=CCN1CCC2(C)c3cc(O)ccc3CC1C2C (single isomer, unassigned; (+)) [(+)Pentazocine, reference compound] | 906 | 
CC(C)=CCN1CCC2(C)c3cc(O)ccc3CC1C2C (single isomer, unassigned; (-)) [(-)Pentazocine, reference compound] | 242 | 
OC(CCCN1CCN(c2ncc(F)cn2)CC1)c1ccc(F)cc1 (stereo not shown) [BMY-14802, reference compound] |  | Ki (sigma-1 binding site; Table 10, read-out: SIGMA-1 KI vs. 3H-PENTAZOCINE MEAN): 271 nM
OCCN1CCN(CCCN2c3ccccc3Sc3ccc(C(F)(F)F)cc32)CC1 [Fluphenazine, reference compound] |  | S1/S2 Ratio (sigma-1 binding site; guinea pig, microsomes): 0.470
